In the NIST ThermoML archive (doi:10.1021/je400821q):

Assay: osmotic coefficient (dimensionless); mn = molality of the nth substance listed, in mol/kg
Conditions: 308.15 K, Liquid, Osmomat K-7000

CCC[N+](CCC)(CCC)CCC.[Br-] [tetrapropylammonium bromide] + O
Conditions	osmotic coefficient
m1 = 0.00795	0.989
m1 = 0.01468	0.9667
m1 = 0.03035	0.9379
m1 = 0.03901	0.9265
m1 = 0.04468	0.9201
m1 = 0.0568	0.9063
m1 = 0.07479	0.8896
m1 = 0.09397	0.8732
m1 = 0.1371	0.8524
m1 = 0.1722	0.8415
m1 = 0.215	0.8321
m1 = 0.2531	0.8261
m1 = 0.2969	0.8201
